# Screening data deposited in PubChem by several laboratories.
# MC4R antagonist: human MC4R antagonism in cAMP assay; P32245; MC4R-expressing cells, MTII-stimulated cAMP, LANCE TR-FRET; inhibition, % at 6.5 µM; actives 0.48% (n = 360,000); AID 540295;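 active = inhibition above its plate's cutoff, the mean of tested wells on that plate plus 3 SD, cut at about 29% in these data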
#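 System – human MC4R-expressing U2OS cells · Also added – Melanotan II · Dosing – one concentration, 6.5 µM nominal · Timing – 30-min compound, 1-h challenge, 1-h detection, room temperature · Measured by – Eu-cAMP/anti-cAMP TR-FRET, emission 671 nm · Replicates – singlicate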
# NRP1-CendR mod: modulators of CendR peptide binding to human neuropilin-1 | O14786 | FAM-RPARPAR peptide binding to NRP-1, fluorescence polarization | inhibition, % at 25 µM | actives 0.85% (n = 360,000) | AID 602438;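 active = inhibition or corrected inhibition above about 18%, plus a signal ratio from 0.5 to 1.5, limit read from the data, passing the limit was not always enough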
# ARFGAP1 inh: inhibits rat ARF GTPase activating protein 1. Q62848. Arfgap1-stimulated ARF1 GTP hydrolysis, GDP FP detection. inhibition, % at 16.5 µM. actives 0.26% (n = 360,000);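 active = inhibition above a per-plate limit, mean inhibition of low control wells plus 3 SD, cut at about 25% in these data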
#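 System: truncated rat Arfgap1 GAP domain / Medium: HEPES-based buffer, pH 7.5 / Also added: N-terminally truncated human ARF1-GTP substrate / Incubation: enzyme reaction 120 min at 25 °C after 20 min preincubation / Measured by: FP of antibody-bound GDP Alexa 633 tracer, ex 620/em 688 nm / Replicates: singlicate, each compound tested once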
# ASAP1 GAP inh: inhibitors of human ASAP1 ArfGAP activity. Q9ULH1. ASAP1-stimulated ARF1 GTP hydrolysis, GDP FP detection. inhibition, % at 16.5 µM. actives 0.19% (n = 360,000). AID 624377; in the data active = inhibition above about 25%
# UUG fidelity: yeast start codon fidelity modulation. S. cerevisiae UUG-firefly luciferase reporter, luminescence/redox ratio. activity score, % at 18.7 µM. 0.13% of 350,000 active;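 active means replicate mean at a twofold rise or more, about +100% in these data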;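 further: firefly luciferase made from a UUG start codon reports start codon fidelity; reporter light over untreated wells divided by growth signal over untreated wells; some hits fall short of that in this replicate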
# MC4R barr agon: human MC4R agonism via beta-arrestin. P32245. U2OS MC4R beta-arrestin complementation, luminescence; percent of melanotan II response, DMSO zero. activation, % at 8.9 µM. actives 0.98% (n = 360,000). AID 540308;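 active = activation above a per-plate cutoff, the mean activation of sample wells on that plate plus 3 SD, cut at about 8% in these data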
# MC4R barr ag: human MC4R beta-arrestin agonism confirmation | shares compounds with MC4R barr agon | U2OS MC4R beta-arrestin recruitment, luminescence; scaled DMSO 0%, Melanotan II 100% | activation, % at 8.9 µM | actives 31% (n = 2,400) | AID 602192;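 active = mean activation across replicates above the hit cutoff set in the earlier primary screen, cut at about 8% in these data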
# MOR DOR agonist: activates mu-delta opioid heterodimer, MC4R agonist counter-screen. shares compounds with MC4R barr agon. activation, % at 9.2 µM. actives 5.8% (n = 2,400). U2OS PathHunter beta-arrestin, beta-gal luminescence; percent of deltorphin B response, DMSO zero;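 active = mean activation across replicates exceeds the hit threshold derived in the earlier primary screen, cut at about 18% in these data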
# Hits are given with their value; – = inactive; · = no result. This is a sample that favours compounds with a hit; in the whole collection about 2.3% have one here.
SMILES,MC4R antagonist,NRP1-CendR mod,ARFGAP1 inh,ASAP1 GAP inh,UUG fidelity,MC4R barr agon,MC4R barr ag,MOR DOR agonist
CC(=O)Nc1ccc(NC(=O)CCc2nc3sc4c(c3c(=O)[nH]2)CCCC4)cc1,–,–,–,–,–,–,·,·
CCCCCn1c(SCC(=O)OCC)nc2cc(C(=O)NCc3ccco3)ccc2c1=O,–,–,–,–,–,13,–,31
COc1cc2nc(SCC(=O)NCc3ccco3)n(Cc3ccc(Cl)cc3)c(=O)c2cc1OC,–,–,–,–,–,13,–,–
COCCNC(=O)CSc1nc2cc(OC)c(OC)cc2c(=O)n1Cc1ccc(OC)cc1,–,–,–,–,–,–,·,·
CC(=O)N(C)C[C@@H]1Oc2cc(-c3ccccc3C)ccc2S(=O)(=O)N([C@H](C)CO)C[C@H]1C,·,·,·,·,–,·,·,·
CN1C(=O)c2cc(NC(=O)C3CC3)ccc2OC[C@H]2O[C@H](CC(=O)NCC3CCCCC3)CC[C@H]21,·,·,·,·,–,·,·,·
CCc1nc(N)c(C#N)c(-c2ccco2)c1C,–,–,–,–,–,–,·,·
Cc1c(-c2ccccc2)nc(N)c(C#N)c1-c1ccco1,–,–,–,–,–,12,–,–
CCN(CC)c1ccc(/C=N/NC(=O)Cc2nnc(NC(=O)Nc3ccccc3)s2)cc1,–,–,–,–,·,11,–,–
CCN(CC)c1ccc(/C=N/NC(=O)Nc2ccccc2)cc1,–,–,–,–,·,–,·,·
C[C@H]1CN([C@@H](C)CO)S(=O)(=O)c2ccc(-c3cccc(C#N)c3)cc2O[C@@H]1CN(C)Cc1cccc(F)c1,·,·,·,·,–,·,·,·
COc1ccc(CN(C)C[C@@H]2OCCCC[C@@H](C)Oc3ccc(NC(=O)Cc4ccccc4)cc3C(=O)N([C@@H](C)CO)C[C@@H]2C)cc1,·,·,·,·,–,·,·,·
Cc1cc(C(=O)Nc2ccc(N3CCOCC3)c3nonc23)ccc1[N+](=O)[O-],–,–,–,–,–,–,·,·
Cc1ccc(C(=O)Nc2ccc(N3CCOCC3)c3nonc23)cc1[N+](=O)[O-],–,–,–,–,–,11,–,–
O=C(C[C@H]1C(=O)N(c2ccc(Br)cc2)C[C@@H]1Cc1ccccc1)Nc1ccccc1,–,–,–,–,–,–,·,·
O=C(C[C@H]1C(=O)N(c2ccccc2)C[C@@H]1Cc1ccccc1)Nc1ccc(Br)cc1,–,–,–,–,–,14,–,–
O=c1[nH]c2cc(C(F)(F)F)ccc2n1-c1cc(C(F)(F)F)ccc1O,–,–,–,–,–,10,–,–
Cc1ccccc1C(=O)N[C@H](C(=O)Nc1ccc(Cl)c(Cl)c1)C(C)C,–,–,–,–,–,17,–,–
CC(C)[C@H](NC(=O)c1ccccc1F)C(=O)Nc1ccc(F)c(F)c1,–,–,–,–,–,–,·,·
C=CCOc1ccc(/C=C/C(=O)OCC(=O)NCc2cccc(OC)c2)cc1,–,–,–,–,–,28,–,–
Cc1ccc(S(=O)(=O)N2C[C@H]3n4c(=O)ccc(=O)n4C[C@H](OC(=O)NCc4ccccc4)[C@@]3(O)C2)cc1,–,–,–,–,–,–,·,·
CCCCCCn1c(=O)n2n(c1=O)[C@@H]1CN(S(=O)(=O)c3ccc(C)cc3)C[C@]1(O)[C@@H](OC(=O)NCc1ccccc1)C2,–,–,–,–,–,10,8.5,–
CCCCOc1ccc(C)cc1CN(CCO)CCO,–,–,–,–,–,–,·,·
CCCCCc1ccc(OCCCC[n+]2ccccc2)c(CCCCC)c1,–,–,·,·,·,10,8.3,–
CCC(C)(C)c1ccc(OCCCC[n+]2ccccc2)c(C(C)(C)CC)c1,–,–,–,–,·,12,12,–
SMILES,MC4R antagonist,NRP1-CendR mod,ARFGAP1 inh,ASAP1 GAP inh,UUG fidelity,MC4R barr agon,MC4R barr ag,MOR DOR agonist
CCCCCc1ccc(OCCCC[n+]2cccc(C)c2)c(CCCCC)c1,–,–,–,–,·,16,13,–
CCCCCc1ccc(OCCCC[n+]2ccc(C)cc2)c(CCCCC)c1,–,–,–,–,·,–,·,·
O=C(C[C@H]1C[C@@H]2c3cc(NS(=O)(=O)c4ccc(F)cc4)ccc3O[C@@H]2[C@@H](CO)O1)NCC1CC1,·,·,·,·,–,·,·,·
CCCCOC(=O)Nc1ccc(S(=O)(=O)Nc2ccc([N+](=O)[O-])cc2)cc1,–,–,–,–,–,–,·,·
CCCCCOC(=O)Nc1ccc(S(=O)(=O)Nc2cccc([N+](=O)[O-])c2)cc1,–,–,–,–,–,14,9.7,–
CCC(=O)N1[C@H](CO)[C@@H]2c3ccccc3N(C(=O)CC(F)(F)F)C[C@@H]21,·,·,·,·,–,·,·,·
C[C@@H]1CCCCO[C@@H](CN(C)C(=O)c2ccccc2)[C@H](C)CN([C@@H](C)CO)C(=O)c2cc(NC(=O)C3CCCCC3)ccc2O1,·,·,·,·,–,·,·,·
O=C(NCc1ccc2c(c1)OCO2)c1cc(-c2ccccc2Cl)on1,–,–,–,–,–,–,·,·
O=C(Nc1ccc2c(c1)OCO2)c1cc(-c2ccc(O)cc2)on1,–,–,–,–,–,11,–,–
O=C(Nc1ccc2c(c1)OCO2)c1cc(-c2cccc(O)c2)on1,–,–,–,–,–,–,·,·
O=C(Nc1ccc2c(c1)OCO2)c1cc(-c2ccccc2Cl)on1,–,–,–,–,–,32,–,–
COc1cccc(-c2cc(C(=O)Nc3ccc4c(c3)OCO4)no2)c1,–,–,–,–,–,16,–,–
C[C@H]1CN([C@@H](C)CO)C(=O)Cc2cc(NC(=O)C3CC3)ccc2O[C@@H]1CN(C)Cc1ccc(Oc2ccccc2)cc1,·,·,·,·,–,·,·,·
CCOC(=O)c1c(-c2ccc(C)o2)csc1NC(=O)COC(=O)c1ccc(NC(N)=O)cc1,–,–,–,–,–,24,–,–
CC(C)NC(=O)N[C@@H]1CC[C@@H](CC(=O)N2CCCCC2)O[C@H]1CO,·,·,·,·,–,·,·,·
O=c1cc(-c2ccc(O)cc2)oc2c1ccc1ccccc12,–,–,–,–,·,50,–,–
Nc1c(C(=O)Nc2cccc(F)c2)nnn1-c1ccc2c(c1)OCCO2,–,–,–,–,–,11,–,–
CC1=C(SCCC#N)S/C(=C2\SC(C)=C(SCCC#N)S2)S1,–,–,–,–,–,19,–,–
Cn1c(SCCC#N)nnc1-c1ccc(F)cc1,–,–,·,·,·,–,·,·
Cc1noc(C)c1NC(=O)N(C)C[C@@H]1Oc2ccc(NC(=O)C3CC3)cc2C(=O)N([C@@H](C)CO)C[C@@H]1C,·,·,·,·,–,·,·,·
CCCCOc1ccc(C(C)NC(=O)CCS(=O)(=O)Cc2ccccc2Cl)cc1 (stereo unspecified),–,–,–,–,·,11,–,–
